The values that follow come from PMC8910432 (International Journal of Molecular Sciences, 2022).

The target of the assay is SARS-CoV-2 3CLpro (Severe acute respiratory syndrome coronavirus 2, UniProt P0DTD1).

SMILES strings stand for the structures.

On to `O=C(OC[C@H]1OC(OC(=O)c2cc(O)c(O)c(OC(=O)c3cc(O)c(O)c(O)c3)c2)[C@H](OC(=O)c2cc(O)c(O)c(OC(=O)c3cc(O)c(O)c(O)c3)c2)[C@@H](OC(=O)c2cc(O)c(O)c(OC(=O)c3cc(O)c(O)c(O)c3)c2)[C@@H]1OC(=O)c1cc(O)c(O)c(OC(=O)c2cc(O)c(O)c(O)c2)c1)c1cc(O)c(O)c(OC(=O)c2cc(O)c(O)c(O)c2)c1` (stereo partly drawn) [TA, 1,2,3,4,6-penta-O-{3,4-dihydroxy-5-((3,4,5-trihydroxybenzoyl)oxy)benzoyl}-D-glucopyranose], for which the “concentration from which inhibitory effect on 3CLpro activity is significant” value is recorded as at least 0.1 µM.
